Source: patent publication US7235557B2, “Compounds and their uses” (MGI GP, Inc., priority 2000, dated 2007)

The chains behind the UniProt entries cited, without tags or fusion partners.
UniProt P09874, whole entry: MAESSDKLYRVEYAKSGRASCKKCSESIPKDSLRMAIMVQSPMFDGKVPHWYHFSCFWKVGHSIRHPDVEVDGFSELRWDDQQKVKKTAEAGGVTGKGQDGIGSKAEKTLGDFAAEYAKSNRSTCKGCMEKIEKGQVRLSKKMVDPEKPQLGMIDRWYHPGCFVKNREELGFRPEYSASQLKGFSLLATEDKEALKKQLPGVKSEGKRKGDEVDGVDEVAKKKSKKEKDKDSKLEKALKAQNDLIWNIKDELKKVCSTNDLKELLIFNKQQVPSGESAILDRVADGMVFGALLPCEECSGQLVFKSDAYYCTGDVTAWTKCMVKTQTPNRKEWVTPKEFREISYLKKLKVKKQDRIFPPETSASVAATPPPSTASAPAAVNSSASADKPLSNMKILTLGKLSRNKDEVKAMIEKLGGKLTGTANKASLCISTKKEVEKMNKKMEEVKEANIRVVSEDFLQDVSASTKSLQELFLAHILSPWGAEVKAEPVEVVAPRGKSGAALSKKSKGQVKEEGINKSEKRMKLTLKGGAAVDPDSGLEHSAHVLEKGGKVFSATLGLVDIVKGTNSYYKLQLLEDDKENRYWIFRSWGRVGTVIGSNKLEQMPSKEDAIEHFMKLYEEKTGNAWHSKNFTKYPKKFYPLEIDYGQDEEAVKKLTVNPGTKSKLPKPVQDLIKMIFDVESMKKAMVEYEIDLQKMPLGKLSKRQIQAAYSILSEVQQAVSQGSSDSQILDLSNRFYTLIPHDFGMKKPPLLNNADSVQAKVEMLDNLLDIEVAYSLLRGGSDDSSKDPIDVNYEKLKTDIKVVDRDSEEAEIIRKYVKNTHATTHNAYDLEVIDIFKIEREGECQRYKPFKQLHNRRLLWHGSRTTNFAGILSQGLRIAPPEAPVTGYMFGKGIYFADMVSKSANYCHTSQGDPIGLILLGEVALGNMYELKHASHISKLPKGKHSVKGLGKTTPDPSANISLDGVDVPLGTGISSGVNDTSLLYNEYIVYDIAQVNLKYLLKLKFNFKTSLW

Molecular target: T1, purified recombinant human PARP (Homo sapiens, UniProt P09874)
T1 construct: purchased Trevigan (Gaithersburg, Md.)
Experiment: PARP enzyme assay (IC50)
Assay type: biochemical
Details: approximate IC50 values, [3H]NAD

O=C(CN1CCCCC1)Nc1ccc2[nH]c(=O)c3ccccc3c2n1
pIC50: 6.82

pIC50: −log10 of the molar value.
